Measured values from article PMC7812675 (ACS Medicinal Chemistry Letters, 2020).
pKi: −log10 of the molar value.

Target: VHL/EloB/EloC complex (VBC) (Homo sapiens, UniProt P40337)
Test: Competitive MST assay, unlabeled peptides against VHL and FAM reporter peptide
Conditions: derived from IC50
[1] = FAM-11mer competition, 570 nM VBC/20 nM FAM-11mer reporter
[2] = FAM-19mer competition, 80 nM VBC/20 nM FAM-19mer reporter

Row | pKi [1] | pKi [2] | Structure (SMILES)
1 | 6.22 | 6.27 | CC[C@H](C)[C@H](NC(=O)[C@H](Cc1ccc(O)cc1)NC(=O)[C@@H]1C[C@@H](O)CN1C(=O)[C@H](C)NC(=O)[C@H](CC(C)C)NC(=O)[C@H](C)NC(=O)[C@H](CCC(=O)O)NC(=O)[C@@H](N)CC(=O)O)C(=O)N1CCC[C@H]1C(=O)N[C@@H](CCSC)C(=O)N[C@@H](CC(=O)O)C(=O)O [11mer]
2 | 6.78 | 6.69 | CC[C@H](C)[C@H](NC(=O)[C@H](Cc1ccc(O)cc1)NC(=O)[C@@H]1C[C@@H](O)CN1C(=O)[C@H](C)NC(=O)[C@H](CC(C)C)NC(=O)[C@H](C)NC(=O)[C@H](CCC(=O)O)NC(=O)[C@@H](N)CC(=O)O)C(=O)N1CCC[C@H]1C(=O)N[C@@H](CCSC)C(=O)N[C@@H](CC(=O)O)C(=O)N[C@@H](CC(=O)O)C(=O)N[C@@H](CC(=O)O)C(=O)N[C@@H](Cc1ccccc1)C(=O)N[C@@H](CCC(N)=O)C(=O)N[C@@H](CC(C)C)C(=O)N[C@@H](CCCNC(=N)N)C(=O)N[C@@H](CO)C(=O)N[C@@H](Cc1ccccc1)C(=O)O [19mer]
